Assay results as given in PubChem BioAssay AID2528 (National Center for Advancing Translational Sciences (NCATS), 2010).
About 700 (0.2%) of roughly 350,000 compounds were called active. Listed are the inconclusive results; actives and inactives stand elsewhere. Calls follow the shape of the dose curve; as a rule, active = well fitted inhibition curve with a large enough effect; inconclusive = small, poorly fitted or top-dose-only effect; inactive = flat fitted curve, though single readings scatter.

The chains behind the UniProt entries cited, without tags or fusion partners. Where a name states a change or a piece, a line headed by the entry shows the natural chain unless it says otherwise.
UniProt P54132: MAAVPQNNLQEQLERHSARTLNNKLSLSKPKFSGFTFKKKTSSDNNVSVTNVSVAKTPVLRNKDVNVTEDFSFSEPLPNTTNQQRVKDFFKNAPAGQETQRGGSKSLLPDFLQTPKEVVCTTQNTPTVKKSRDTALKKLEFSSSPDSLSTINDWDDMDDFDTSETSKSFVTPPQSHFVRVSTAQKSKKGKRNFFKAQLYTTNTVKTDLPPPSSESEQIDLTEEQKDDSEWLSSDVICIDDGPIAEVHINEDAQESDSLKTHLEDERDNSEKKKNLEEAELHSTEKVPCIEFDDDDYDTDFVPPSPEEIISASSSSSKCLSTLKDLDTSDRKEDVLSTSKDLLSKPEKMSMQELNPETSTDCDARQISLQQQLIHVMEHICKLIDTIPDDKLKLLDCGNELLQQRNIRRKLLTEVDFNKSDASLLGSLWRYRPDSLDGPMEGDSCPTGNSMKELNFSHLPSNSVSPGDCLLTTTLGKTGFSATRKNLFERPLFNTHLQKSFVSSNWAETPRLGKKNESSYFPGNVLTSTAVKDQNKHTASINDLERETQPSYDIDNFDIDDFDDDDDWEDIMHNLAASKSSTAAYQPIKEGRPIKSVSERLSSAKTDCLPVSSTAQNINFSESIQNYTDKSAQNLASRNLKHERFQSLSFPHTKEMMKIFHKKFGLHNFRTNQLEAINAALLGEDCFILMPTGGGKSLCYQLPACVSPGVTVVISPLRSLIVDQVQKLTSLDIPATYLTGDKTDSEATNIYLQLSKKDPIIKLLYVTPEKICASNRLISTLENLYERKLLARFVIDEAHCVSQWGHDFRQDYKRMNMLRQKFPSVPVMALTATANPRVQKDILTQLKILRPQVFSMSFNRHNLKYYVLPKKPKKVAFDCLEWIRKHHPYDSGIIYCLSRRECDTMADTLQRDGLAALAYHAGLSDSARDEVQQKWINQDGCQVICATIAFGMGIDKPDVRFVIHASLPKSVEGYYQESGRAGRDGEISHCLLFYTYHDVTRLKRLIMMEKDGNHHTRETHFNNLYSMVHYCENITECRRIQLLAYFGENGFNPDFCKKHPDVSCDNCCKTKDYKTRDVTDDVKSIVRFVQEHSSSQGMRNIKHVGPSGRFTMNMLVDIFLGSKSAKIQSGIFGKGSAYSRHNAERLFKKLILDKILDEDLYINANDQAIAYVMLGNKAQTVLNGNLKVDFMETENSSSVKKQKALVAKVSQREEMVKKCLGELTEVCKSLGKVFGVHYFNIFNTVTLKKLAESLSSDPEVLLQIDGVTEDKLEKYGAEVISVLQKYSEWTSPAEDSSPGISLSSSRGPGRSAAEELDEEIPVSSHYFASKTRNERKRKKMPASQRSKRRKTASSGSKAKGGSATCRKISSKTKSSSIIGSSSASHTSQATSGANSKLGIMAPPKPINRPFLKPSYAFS

target: RecQ-like DNA helicase BLM (Homo sapiens) (UniProt P54132); experiment: qHTS Assay for Inhibitors of Bloom's syndrome helicase (BLM); conditions: recombinant BLM DNA unwinding, fluorescence dequenching; also: nearly all actives have a fitted effect of over 35% in size
Potency is read from the fitted curve at half-maximal effect.

SMILES | Potency
Nc1cccc2c([As](=O)(O)O)cccc12 | inconclusive: 7.94 µM
